Measured values as given in ChEMBL document CHEMBL1154229 (Bioorg Med Chem Lett, 2009).
Blank lines part the entries; values can stand above or below the compound they belong to.

Sequences of proteins named here, by UniProt entry; tags and fusion partners are left off. A change or cut given only in a name is not applied to a line headed by its entry.
UniProt P80299: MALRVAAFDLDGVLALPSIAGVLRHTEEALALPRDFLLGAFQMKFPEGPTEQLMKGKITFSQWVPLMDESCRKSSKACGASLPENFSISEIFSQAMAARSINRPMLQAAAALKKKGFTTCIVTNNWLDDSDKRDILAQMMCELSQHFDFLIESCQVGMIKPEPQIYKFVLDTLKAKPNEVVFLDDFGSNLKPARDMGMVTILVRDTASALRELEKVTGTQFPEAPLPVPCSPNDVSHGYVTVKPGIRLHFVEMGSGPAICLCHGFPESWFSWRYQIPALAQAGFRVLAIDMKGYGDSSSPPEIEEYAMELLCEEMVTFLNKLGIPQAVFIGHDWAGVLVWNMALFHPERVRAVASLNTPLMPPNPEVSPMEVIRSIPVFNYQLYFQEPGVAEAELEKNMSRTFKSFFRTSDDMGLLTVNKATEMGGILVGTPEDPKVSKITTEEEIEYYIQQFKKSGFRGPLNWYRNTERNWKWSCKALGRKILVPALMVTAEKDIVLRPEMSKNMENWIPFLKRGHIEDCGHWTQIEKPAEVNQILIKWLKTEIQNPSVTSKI
UniProt Q14524, whole entry: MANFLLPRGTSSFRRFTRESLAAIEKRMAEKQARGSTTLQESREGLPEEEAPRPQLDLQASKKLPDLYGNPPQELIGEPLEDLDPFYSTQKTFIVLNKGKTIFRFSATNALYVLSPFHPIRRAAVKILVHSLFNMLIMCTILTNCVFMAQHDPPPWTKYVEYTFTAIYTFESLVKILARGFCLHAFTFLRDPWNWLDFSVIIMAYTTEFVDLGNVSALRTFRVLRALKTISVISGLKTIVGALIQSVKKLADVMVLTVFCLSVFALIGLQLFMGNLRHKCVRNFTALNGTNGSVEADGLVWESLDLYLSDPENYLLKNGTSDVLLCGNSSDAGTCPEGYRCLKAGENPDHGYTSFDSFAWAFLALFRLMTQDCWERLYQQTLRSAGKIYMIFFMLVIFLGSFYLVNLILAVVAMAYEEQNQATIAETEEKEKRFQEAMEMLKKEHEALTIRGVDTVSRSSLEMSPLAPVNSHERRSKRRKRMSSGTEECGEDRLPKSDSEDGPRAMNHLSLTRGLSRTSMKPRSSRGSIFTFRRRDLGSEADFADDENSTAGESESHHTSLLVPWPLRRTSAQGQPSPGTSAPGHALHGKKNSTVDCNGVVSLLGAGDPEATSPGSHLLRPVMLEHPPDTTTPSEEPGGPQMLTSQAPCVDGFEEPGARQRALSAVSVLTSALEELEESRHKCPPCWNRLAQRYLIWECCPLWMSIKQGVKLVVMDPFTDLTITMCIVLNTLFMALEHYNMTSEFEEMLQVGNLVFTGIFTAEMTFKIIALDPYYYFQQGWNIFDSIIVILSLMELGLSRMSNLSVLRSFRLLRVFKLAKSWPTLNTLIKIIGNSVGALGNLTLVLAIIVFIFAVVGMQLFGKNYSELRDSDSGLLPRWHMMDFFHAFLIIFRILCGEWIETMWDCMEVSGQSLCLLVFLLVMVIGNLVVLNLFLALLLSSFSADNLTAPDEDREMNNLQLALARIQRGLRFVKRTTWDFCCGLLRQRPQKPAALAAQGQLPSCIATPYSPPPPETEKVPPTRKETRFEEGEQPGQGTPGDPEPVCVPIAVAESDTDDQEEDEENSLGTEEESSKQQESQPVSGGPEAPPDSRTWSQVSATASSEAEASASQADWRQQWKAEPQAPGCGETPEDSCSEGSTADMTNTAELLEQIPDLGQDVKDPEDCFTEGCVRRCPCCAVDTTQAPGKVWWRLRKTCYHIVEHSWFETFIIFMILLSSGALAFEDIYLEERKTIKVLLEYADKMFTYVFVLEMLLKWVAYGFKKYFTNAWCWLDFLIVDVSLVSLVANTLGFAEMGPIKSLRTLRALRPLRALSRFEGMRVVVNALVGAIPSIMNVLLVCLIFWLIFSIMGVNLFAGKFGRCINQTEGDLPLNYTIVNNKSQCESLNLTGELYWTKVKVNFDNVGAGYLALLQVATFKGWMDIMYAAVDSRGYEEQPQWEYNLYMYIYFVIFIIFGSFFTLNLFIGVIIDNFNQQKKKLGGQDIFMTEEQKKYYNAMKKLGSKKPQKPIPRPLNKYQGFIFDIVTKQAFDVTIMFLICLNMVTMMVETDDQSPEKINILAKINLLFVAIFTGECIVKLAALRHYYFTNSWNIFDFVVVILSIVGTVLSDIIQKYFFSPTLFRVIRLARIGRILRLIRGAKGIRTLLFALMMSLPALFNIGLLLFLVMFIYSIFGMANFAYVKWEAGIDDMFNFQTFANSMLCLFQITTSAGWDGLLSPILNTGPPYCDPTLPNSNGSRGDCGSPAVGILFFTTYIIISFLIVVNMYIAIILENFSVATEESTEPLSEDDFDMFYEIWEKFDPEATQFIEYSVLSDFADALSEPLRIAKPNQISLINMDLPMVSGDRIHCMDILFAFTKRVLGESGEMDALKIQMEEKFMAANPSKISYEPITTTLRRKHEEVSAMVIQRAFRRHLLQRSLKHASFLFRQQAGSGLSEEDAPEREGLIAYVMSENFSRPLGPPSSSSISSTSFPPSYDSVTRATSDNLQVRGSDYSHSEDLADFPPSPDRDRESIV

Legend:
[1] = target: Bifunctional epoxide hydrolase 2 (Rattus norvegicus) (UniProt P80299); assay: Inhibition of soluble epoxide hydrolase in rat whole blood assessed as reduction of DHET production at 1 uM after 60 mins relative to control; type: tissue-based
[2] = target: Bifunctional epoxide hydrolase 2 (Rattus norvegicus) (UniProt P80299); assay: Inhibition of soluble epoxide hydrolase in rat whole blood assessed as reduction of DHET production at 1 uM after 15 mins relative to control; type: tissue-based
[3] = target: Bifunctional epoxide hydrolase 2 (Rattus norvegicus) (UniProt P80299); assay: Inhibition of soluble epoxide hydrolase in rat whole blood assessed as reduction of DHET production at 1 uM after 30 mins relative to control; type: tissue-based
[4] = target: Sodium channel protein type 5 subunit alpha (Homo sapiens, UniProt Q14524); assay: Inhibition of Nav1.5 channel
[5] = target: Bifunctional epoxide hydrolase 2 (Rattus norvegicus, UniProt P80299); assay: Inhibition of rat soluble epoxide hydrolase

inhibition [1]: 8.1% | inhibition [2]: 3.4% | inhibition [3]: 5.3%
Compound: O=C(O)CCC1(c2ccccc2)CCCN(C(=O)Nc2ccc(Cl)cc2)C1 (stereo in doubt)

Compound: CC1(c2ccccc2)CCCN(C(=O)NCc2ccc(-c3cccc(Cl)c3)cc2)C1 (stereo not given)
IC50 [4]: 10 µM

IC50 [5]: 0.006 µM
Compound: CC1(c2ccccc2)CCCN(C(=O)NCCCc2cccnc2)C1 (stereo not given)
